From US7183260B2, “C-terminal modified oxamyl dipeptides as inhibitors of the ICE/ced-3 family of cysteine proteases” (Idun Pharmaceuticals, Inc., priority 1998, dated 2007)

Chains of the proteins cited; added tags and fusions are not shown. Residues count along the entry.
UniProt P29452, 123-296 limits assumed: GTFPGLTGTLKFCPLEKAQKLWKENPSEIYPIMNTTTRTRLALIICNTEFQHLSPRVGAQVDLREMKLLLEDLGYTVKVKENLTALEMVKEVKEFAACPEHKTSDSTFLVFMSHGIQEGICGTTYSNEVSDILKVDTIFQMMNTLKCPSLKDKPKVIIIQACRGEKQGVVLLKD
UniProt P29452, 315-402 limits assumed: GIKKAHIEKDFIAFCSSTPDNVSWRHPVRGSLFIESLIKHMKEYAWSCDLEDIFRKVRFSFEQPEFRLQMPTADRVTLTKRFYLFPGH
UniProt P42574, 29-175 limits assumed: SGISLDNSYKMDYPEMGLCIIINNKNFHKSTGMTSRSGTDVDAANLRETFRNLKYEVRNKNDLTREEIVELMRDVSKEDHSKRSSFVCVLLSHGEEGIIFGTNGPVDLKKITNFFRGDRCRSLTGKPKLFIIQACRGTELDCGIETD
UniProt P42574, 176-277 limits assumed: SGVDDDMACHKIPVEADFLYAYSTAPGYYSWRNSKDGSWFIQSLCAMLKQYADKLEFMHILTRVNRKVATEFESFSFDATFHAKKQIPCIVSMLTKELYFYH
UniProt P55212, 24-179 limits assumed: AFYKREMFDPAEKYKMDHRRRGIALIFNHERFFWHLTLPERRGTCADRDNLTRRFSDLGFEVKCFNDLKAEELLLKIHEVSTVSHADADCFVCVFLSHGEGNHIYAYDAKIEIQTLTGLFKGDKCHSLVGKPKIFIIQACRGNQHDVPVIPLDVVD
UniProt P55212, 194-293 limits assumed: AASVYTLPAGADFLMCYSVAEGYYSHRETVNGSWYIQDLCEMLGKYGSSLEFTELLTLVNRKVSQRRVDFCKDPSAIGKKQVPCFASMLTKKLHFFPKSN
UniProt Q14790, 217-374 limits assumed: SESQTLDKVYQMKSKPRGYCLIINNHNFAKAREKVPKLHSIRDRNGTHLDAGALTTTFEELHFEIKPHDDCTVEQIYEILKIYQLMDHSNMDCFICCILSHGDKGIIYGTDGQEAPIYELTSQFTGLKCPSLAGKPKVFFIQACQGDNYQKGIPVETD
UniProt Q14790, 385-479 limits assumed: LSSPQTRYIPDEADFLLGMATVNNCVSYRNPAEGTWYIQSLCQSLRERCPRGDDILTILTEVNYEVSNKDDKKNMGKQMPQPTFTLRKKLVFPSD

Experiments:
Assay type in all cases: biochemical
mICE = mICE (Mus musculus, UniProt P29452); experiment: Dissociation constant Ki and irreversible rate constant k3 for irreversible inhibitors (ICE)
CPP32 = CPP32 (Homo sapiens, UniProt P42574); experiment: Dissociation constant Ki and irreversible rate constant k3 for irreversible inhibitors (CPP32)
MCH-2 = MCH-2 (Homo sapiens, UniProt P55212); experiment: Dissociation constant Ki and irreversible rate constant k3 for irreversible inhibitors (Mch2)
MCH-5 = MCH-5 (Homo sapiens, UniProt Q14790); experiment: Dissociation constant Ki and irreversible rate constant k3 for irreversible inhibitors (Mch5)

In the case of C[C@H](NC(=O)C(=O)Nc1cccc2cc3ccccc3cc12)C(=O)N[C@@H](CC(=O)O)C(=O)COC(=O)c1c(Cl)cccc1Cl, the “mICE k3/Ki” value (mICE) is reported as 126,000 moles^−1 seconds^−1, the Ki (mICE; read-out: mICE Ki) is reported as 108 nM and the “CPP32 k3/Ki” value (CPP32) is reported as 165,000 moles^−1 seconds^−1. For the same compound, the Ki (CPP32; read-out: CPP32 Ki) was 50 nM, the “MCH-2 k3/Ki” value (MCH-2) was 143,000 moles^−1 seconds^−1 and the Ki (MCH-2; read-out: MCH-2 Ki) was 22 nM. The “MCH-5 k3/Ki” value (MCH-5) was 92,600 moles^−1 seconds^−1 and the Ki (MCH-5; read-out: MCH-5 Ki) was 25 nM.
